Measured values as given in ChEMBL document CHEMBL3621197, “Design, synthesis, and preliminary bioactivity studies of substituted purine hydroxamic acid derivatives as novel histone deacetylase (HDAC) inhibitors” (Medchemcomm, 2014).

Molecular target: T1, Protein deacetylase HDAC6 (Homo sapiens) (UniProt Q9UBN7)
T1 sequence (whole entry): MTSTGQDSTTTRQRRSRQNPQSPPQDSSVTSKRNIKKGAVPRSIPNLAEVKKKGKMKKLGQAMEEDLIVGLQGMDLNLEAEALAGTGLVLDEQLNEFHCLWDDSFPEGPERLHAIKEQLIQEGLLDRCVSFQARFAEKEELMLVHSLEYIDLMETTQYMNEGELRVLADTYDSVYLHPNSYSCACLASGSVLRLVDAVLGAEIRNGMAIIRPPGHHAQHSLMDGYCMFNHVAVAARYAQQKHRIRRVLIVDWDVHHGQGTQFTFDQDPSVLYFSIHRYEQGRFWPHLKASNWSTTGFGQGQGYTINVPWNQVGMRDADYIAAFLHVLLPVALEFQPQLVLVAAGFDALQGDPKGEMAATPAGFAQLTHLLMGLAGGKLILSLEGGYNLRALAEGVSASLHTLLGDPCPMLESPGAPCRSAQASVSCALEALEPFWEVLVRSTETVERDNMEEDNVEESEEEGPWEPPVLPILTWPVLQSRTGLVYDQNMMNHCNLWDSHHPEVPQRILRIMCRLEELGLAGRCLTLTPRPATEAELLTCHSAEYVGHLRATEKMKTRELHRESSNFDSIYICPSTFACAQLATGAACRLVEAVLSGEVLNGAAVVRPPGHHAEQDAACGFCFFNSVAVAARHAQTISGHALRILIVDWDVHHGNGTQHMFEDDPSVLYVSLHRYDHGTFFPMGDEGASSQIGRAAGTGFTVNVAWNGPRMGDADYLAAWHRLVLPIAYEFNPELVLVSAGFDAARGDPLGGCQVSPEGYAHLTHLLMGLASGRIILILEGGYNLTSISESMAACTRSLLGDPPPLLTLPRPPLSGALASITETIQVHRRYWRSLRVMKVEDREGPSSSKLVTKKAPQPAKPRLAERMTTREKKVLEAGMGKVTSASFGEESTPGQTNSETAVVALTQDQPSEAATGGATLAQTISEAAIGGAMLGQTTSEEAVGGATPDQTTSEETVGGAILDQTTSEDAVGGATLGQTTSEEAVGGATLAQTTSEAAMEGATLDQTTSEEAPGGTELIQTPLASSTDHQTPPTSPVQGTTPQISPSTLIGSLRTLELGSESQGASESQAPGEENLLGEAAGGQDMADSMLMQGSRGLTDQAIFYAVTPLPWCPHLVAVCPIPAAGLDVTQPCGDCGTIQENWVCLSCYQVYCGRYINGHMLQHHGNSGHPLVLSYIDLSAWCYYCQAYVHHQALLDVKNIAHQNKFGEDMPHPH
Assay: Potency index, ratio of SAHA IC50 to compound IC50 for recombinant full length human HDAC6 expressed in Baculovirus infected Sf9 cells

Row | Ratio IC50 | SMILES
1 | 8 | O=C(CCCCCNC(=O)Cn1cnc2c(N3CCOCC3)nc(Nc3ccccc3)nc21)NO
2 | 8 | O=C(CCCCCCNC(=O)Cn1cnc2c(Nc3ccccc3)nc(Nc3ccccc3)nc21)NO
3 | 8 | O=C(CCCCCNC(=O)Cn1cnc2c(Nc3ccccc3)nc(Nc3ccccc3)nc21)NO
